# Experimental data reported in EP4831173A1, “TYK2 INHIBITOR AND USE THEROF” (dated 2026).
# Amino acid sequences for entries named in this document (tags omitted). Residues count along the entry.
# UniProt P29597, whole entry: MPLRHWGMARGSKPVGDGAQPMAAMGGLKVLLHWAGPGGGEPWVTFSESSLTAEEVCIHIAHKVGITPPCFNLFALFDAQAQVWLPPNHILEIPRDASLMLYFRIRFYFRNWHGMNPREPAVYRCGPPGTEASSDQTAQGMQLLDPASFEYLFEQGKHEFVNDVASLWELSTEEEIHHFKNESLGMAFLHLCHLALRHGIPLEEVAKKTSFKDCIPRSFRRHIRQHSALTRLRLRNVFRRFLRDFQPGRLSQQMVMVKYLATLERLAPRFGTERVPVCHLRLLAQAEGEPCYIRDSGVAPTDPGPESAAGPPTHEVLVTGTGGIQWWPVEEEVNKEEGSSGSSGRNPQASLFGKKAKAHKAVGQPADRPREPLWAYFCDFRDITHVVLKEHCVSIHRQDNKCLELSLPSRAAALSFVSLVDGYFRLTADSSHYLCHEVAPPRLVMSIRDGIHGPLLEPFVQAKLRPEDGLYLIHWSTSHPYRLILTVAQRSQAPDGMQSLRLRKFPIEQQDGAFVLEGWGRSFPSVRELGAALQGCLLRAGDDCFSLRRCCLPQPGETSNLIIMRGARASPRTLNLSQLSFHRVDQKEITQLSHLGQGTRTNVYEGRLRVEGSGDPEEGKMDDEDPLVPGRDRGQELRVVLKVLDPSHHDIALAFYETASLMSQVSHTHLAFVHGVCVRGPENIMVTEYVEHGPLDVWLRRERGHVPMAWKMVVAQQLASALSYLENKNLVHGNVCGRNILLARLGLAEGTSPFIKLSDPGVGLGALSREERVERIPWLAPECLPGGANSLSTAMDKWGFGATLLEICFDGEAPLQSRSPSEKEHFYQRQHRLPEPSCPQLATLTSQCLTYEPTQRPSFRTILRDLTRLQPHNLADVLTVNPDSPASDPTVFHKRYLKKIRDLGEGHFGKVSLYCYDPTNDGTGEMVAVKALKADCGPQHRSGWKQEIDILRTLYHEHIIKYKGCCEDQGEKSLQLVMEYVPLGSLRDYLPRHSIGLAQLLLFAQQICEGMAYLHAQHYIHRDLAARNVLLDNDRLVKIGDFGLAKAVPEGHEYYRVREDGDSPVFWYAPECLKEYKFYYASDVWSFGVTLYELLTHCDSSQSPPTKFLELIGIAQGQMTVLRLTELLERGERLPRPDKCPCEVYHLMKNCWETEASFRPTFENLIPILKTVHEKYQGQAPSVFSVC
# UniProt P29597, 589-875 limits assumed: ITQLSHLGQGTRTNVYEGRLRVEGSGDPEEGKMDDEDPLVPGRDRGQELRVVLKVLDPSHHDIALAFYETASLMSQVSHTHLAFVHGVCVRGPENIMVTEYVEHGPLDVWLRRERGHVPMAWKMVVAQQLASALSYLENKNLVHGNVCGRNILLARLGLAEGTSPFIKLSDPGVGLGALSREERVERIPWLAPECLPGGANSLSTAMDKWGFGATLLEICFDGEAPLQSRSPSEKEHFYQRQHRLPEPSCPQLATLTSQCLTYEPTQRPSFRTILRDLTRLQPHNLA
# UniProt P29597, 897-1176 limits assumed: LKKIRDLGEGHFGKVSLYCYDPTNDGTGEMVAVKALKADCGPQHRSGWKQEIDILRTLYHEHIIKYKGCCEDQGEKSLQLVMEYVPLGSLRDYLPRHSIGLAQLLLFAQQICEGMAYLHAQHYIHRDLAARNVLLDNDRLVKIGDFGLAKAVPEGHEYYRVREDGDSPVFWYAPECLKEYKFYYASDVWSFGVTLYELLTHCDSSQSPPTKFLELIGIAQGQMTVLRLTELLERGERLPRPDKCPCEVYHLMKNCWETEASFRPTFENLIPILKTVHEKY
# UniProt P23458, whole entry partner: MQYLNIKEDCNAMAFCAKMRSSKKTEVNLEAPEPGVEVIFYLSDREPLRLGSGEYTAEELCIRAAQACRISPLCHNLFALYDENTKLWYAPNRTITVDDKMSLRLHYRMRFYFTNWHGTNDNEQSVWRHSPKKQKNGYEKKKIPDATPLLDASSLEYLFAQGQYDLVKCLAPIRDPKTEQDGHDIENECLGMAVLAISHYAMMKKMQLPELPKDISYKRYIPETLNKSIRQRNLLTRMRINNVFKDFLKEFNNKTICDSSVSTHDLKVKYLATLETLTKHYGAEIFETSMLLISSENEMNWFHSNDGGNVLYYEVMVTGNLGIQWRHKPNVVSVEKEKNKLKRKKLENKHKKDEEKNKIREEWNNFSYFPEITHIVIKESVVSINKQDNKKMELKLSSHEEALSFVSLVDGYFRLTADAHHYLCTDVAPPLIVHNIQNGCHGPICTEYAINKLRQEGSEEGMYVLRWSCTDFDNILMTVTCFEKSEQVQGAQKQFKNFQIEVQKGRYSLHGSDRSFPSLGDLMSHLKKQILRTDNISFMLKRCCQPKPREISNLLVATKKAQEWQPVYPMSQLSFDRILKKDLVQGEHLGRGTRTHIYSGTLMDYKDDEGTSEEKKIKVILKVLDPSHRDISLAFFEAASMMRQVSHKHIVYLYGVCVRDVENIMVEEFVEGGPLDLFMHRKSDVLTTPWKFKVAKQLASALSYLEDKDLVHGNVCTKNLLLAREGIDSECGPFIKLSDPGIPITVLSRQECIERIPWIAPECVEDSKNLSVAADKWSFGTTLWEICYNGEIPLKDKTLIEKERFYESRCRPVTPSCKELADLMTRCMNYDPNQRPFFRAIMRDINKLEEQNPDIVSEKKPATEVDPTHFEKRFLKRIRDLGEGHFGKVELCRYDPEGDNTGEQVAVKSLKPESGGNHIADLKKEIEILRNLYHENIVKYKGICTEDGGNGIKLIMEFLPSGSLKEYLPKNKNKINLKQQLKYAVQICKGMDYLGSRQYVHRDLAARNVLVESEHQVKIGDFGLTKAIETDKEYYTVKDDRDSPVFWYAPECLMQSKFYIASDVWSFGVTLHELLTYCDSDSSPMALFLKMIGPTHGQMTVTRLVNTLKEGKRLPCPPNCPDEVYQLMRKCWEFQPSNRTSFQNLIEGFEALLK
# UniProt P23458, 875-1153 limits assumed: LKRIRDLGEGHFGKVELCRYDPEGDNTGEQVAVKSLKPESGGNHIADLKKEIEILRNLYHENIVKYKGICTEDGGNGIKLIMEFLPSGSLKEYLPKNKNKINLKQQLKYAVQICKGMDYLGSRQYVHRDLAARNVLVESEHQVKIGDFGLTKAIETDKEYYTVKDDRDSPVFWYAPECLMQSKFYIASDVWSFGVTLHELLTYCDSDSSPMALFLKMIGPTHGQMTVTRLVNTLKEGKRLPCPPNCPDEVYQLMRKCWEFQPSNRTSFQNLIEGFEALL
# UniProt O60674, 849-1124 limits assumed: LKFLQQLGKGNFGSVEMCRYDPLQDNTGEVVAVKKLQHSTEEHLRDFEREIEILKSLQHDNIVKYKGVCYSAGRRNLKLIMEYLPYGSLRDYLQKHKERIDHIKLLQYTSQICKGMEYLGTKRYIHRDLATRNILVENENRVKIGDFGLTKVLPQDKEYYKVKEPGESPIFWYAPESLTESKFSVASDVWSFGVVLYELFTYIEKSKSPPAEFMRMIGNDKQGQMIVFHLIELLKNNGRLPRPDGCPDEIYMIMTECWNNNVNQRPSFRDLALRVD
# UniProt P52333, 822-1111 limits assumed: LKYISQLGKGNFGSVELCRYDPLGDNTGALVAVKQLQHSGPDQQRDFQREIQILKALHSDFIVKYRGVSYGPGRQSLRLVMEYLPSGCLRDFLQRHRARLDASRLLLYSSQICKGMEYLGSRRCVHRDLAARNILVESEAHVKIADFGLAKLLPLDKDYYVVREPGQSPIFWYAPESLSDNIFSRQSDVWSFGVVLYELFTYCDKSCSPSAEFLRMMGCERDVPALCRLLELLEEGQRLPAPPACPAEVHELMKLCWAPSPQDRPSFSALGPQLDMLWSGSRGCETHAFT
# How the values were obtained:
# TYK2 pseudokinase domain = TYK2 pseudokinase domain (Homo sapiens, UniProt P29597); test: TYK2 JH2 pseudokinase domain binding affinity, fluorescence polarization (BPS Bioscience inhibitor screening kit); conditions: read-out: TYK2 JH2 IC50; polarized fluorescence, 25°C, 1 hour
# Description: Experimental Example 1: Analysis of domain binding affinity to TYK2 pseudokinase
# In order analyze the binding affinity of a test compound to the TYK2 pseudokinase domain, a polarized fluorescence-based TYK2 JH2 Pseudokinase Domain Inhibitor Screening Assay Kit (BPS bioscience) was used. The evaluation of the compound was performed according to the manufacturer's protocol, and the method thereof is as follows:
# The test compound or control compound (Deucravacitnib) was serially diluted in DMSO, and then diluted 1/10 with distilled water to prepare 10x compound solution. After mixing the compound solution with Probe 1 prepared with a binding reaction buffer (JH2 binding buffer), a reaction was performed at 25°C for 10 minutes. Next, the reaction was initiated by adding a TYK2 pseudokinase domain enzyme prepared with the binding reaction buffer. The reaction was performed in a black 384-well plate at 25 °C for 1 hour. Polarized fluorescence was measured using Synergy neo (BioTek Instruments, Inc.).
# JAK1 JH1 = JAK1 JH1 (Homo sapiens, UniProt P23458); test: JAK kinase domain activity, ADP-Glo kinase assay, JAK1; conditions: read-out: JAK1 JH1 IC50, substrate IRS1 (Y608) peptide, top concentration 10000 nM
# Description: (§1) Experimental Example 2: JAK Kinase Domain Activity Analysis
# (§2) Kinase domain activity of the JAK family was analyzed using the ADP-Glo kinase assay kit (Promega). The evaluation of the compound was performed according to the manufacturer's protocol, and the method thereof is as follows:
# (§3) A 10 mM test compound was diluted to 0.5 mM using DMSO in a 96-well plate, and then 5-fold serial dilutions were performed in DMSO. The diluted compound was diluted to 1/10 with 1x reaction buffer (composition) to prepare a 5x compound solution. 5 uL of the 5x compound solution was mixed with a substrate prepared in the reaction buffer (40 mM Tris, 20 mM MgCl2 and 0.1 mg/ml BSA, 0.05 mM DTT, pH 7.5), and an ATP mixture (10 uL). Next, an enzyme reaction was initiated by adding the JAK family enzyme (10 uL) prepared in the reaction buffer. A short rotation was performed to settle all the solution to the bottom of the plate. The final concentrations of the test compounds in the reaction mixture were 10000, 2000, 400, 80, 16, and 3.2 nM. The concentrations of the control compounds (Brepocitinib or Tofacitinib) were 10 times lower. The enzyme reaction was performed at 25°C for 1 hour. 25 uL of ADP-Glo reagent was added and the reaction was performed at 25 °C for 1 hour. The reaction mixed 50 uL of kinase detection reagent and was stopped, and a luminescence signal was measured using Synergy neo (BioTek Instruments, Inc.). […]
# JAK2 JH1 = JAK2 JH1 (Homo sapiens, UniProt O60674); test: JAK kinase domain activity, ADP-Glo kinase assay, JAK2; conditions: read-out: JAK2 JH1 IC50, substrate IGF1R peptide, top concentration 10000 nM
# Description: as §1, §2, §3
# TYK2/JAK1 = TYK2/JAK1 (Homo sapiens, UniProt P29597); test: TYK2/JAK1 cell activity by IFNα2B stimulation, SEAP reporter in HEK-blue IFNα/β cells; conditions: HEK-blue IFNα/β cell line, human IFNα2B 1 U/mL, 24 hours, SEAP absorbance at 630 nm
# Description: Experimental Example 3: Analysis of TYK2/JAKI cell activity by IFNα2B stimulation
# An inhibition effect of TYK2/JAK1 activity of the test compound was analyzed using HEK-blue IFNα/β cell line (InvivoGen) that secretes SEAP (Secreted embryonic alkaline phosphatase) depending on the degree of cell stimulation. Cell culture and evaluation were performed according to the manufacturer's recommendations, and the method thereof is as follows: Cells cultured in a growth medium (Dulbecco's Modified Eagle Medium, 10% Fetal bovine serum, 1% Penicillin-Streptomycin, 100 ug/mL Normocin, 10 mg/mL Blasticidin, […] Zeocin) were collected and resuspended in a test medium (DMEM, 10% FBS, 1% Penicillin-Streptomycin), and 3.5x10^4 cells (160 uL) were dispensed into each well of a 96-well plate. After culturing for 24 hours in a 37°C CO2 incubator, 20 uL of a test compound or control compound (Deucravacitinib) diluted in the test medium was added, and then incubated at 37°C for 1 hour and 30 minutes. Next, 20 uL of human IFNα2B recombinant protein (PBL assay science) prepared with the test medium was added to each well (final concentration 1 U/mL) and then incubated at 37°C for 24 hours. 20 uL and 180 uL of cell supernatant were mixed with a QUANTI-blue reagent (InvivoGen) and then reacted at 37°C for 20-30 minutes. An absorbance at 630 nm was measured using Synergy neo (BioTek Instruments, Inc.). […] [Table 3] Result of TYK2/JAK1 cell activity by IFNα2B stimulation test
# JAK3 JH1 = JAK3 JH1 (Homo sapiens, UniProt P52333); test: JAK kinase domain activity, ADP-Glo kinase assay, JAK3; conditions: read-out: JAK3 JH1 IC50, substrate Poly (4:1 Glu-Tyr) peptide, top concentration 10000 nM
# Description: as §1, §2, §3
# TYK2 JH1 = TYK2 JH1 (Homo sapiens, UniProt P29597); test: JAK kinase domain activity, ADP-Glo kinase assay, TYK2; conditions: read-out: TYK2 JH1 IC50, substrate IRS1 (Y608) peptide, top concentration 10000 nM
# Description: as §1, §2, §3
SMILES,IC50 (TYK2 pseudokinase domain) [µM],IC50 (JAK1 JH1) [µM],IC50 (JAK2 JH1) [µM],IC50 (TYK2/JAK1) [µM],IC50 (JAK3 JH1) [µM],IC50 (TYK2 JH1) [µM]
CC(=O)Nc1cc2c(-c3cc(OCC(C)C)c(=O)n(C(C)C)n3)cn(C3CCC3)c2cn1,0.034,> 10,> 10,< 0.05,> 10,10
CCn1cc(-c2cc(OCC(F)F)c(=O)n([C@@H](C)C(F)(F)F)n2)c2cc(NC(C)=O)ncc21,0.023,> 10,> 10,< 0.05,> 10,> 10
CC(=O)Nc1cc2c(-c3cc(OCC(F)F)c(=O)n([C@H](C)C(F)(F)F)n3)cn(C3CC3)c2cn1,0.358,> 10,> 10,> 0.5,> 10,> 10
COC1CN(c2cc(-c3cn(C4CC4)c4cnc(NC(C)=O)cc34)nn([C@@H](C)C(F)(F)F)c2=O)C1,0.035,> 10,> 10,< 0.05,> 10,> 10
CC(=O)Nc1cc2c(-c3ccc(=O)n(C4(C)CCOC4)n3)cn(C)c2cn1 (stereo not drawn),0.032,> 10,> 10,< 0.05,> 10,> 10
CC(=O)Nc1cc2c(-c3ccc(=O)n(C4(C)CCOC4)n3)cn(C3CC(C#N)C3)c2cn1 (stereo not drawn),0.034,> 10,> 10,0.05 to 0.5,> 10,> 10
CC(=O)Nc1cc2c(-c3cc(OCC(C)(F)F)c(=O)n([C@@H](C)C(F)(F)F)n3)cn(C(C)C)c2cn1,0.081,> 10,> 10,< 0.05,> 10,> 10
CC(=O)Nc1cc2c(-c3cc(OCC(C)(C)F)c(=O)n([C@@H](C)C(F)(F)F)n3)cn(C)c2cn1,0.045,3.11,1.11,< 0.05,> 10,> 10
COC1CN(c2cc(-c3cn(CC4CC4)c4cnc(NC(C)=O)cc34)nn([C@@H](C)C(F)(F)F)c2=O)C1,0.068,> 10,> 10,< 0.05,> 10,> 10
CC(=O)Nc1cc2c(-c3cc(OCC(C)C)c(=O)n([C@@H](C)C(F)(F)F)n3)cn(C)c2cn1,0.043,4.03,1.89,< 0.05,> 10,4.65
COC1CN(c2cc(-c3cn(C)c4cnc(NC(C)=O)cc34)nn([C@@H](C)C(F)(F)F)c2=O)C1,0.026,9.36,2.02,< 0.05,> 10,> 10
CC(=O)Nc1cc2c(-c3cc(OCC(C)C)c(=O)n(C(C)C)n3)cn(C)c2cn1,0.019,1.65,0.597,0.05 to 0.5,> 10,4.06
